Tests used:
thrombin = thrombin (Bos taurus, UniProt P00735); test: biochemical
plasmin = plasmin (Homo sapiens, UniProt P00747); test: inhibition of plasmin, dissociation constant Ki; details: read-out: Ki, Plasmin
[1] = system: coagulation in human plasma; test: thrombin time (TT) in human plasma
[2] = system: coagulation in human plasma; test: prothrombin time (PT, Quick value) in human plasma
[3] = system: coagulation in human plasma; test: activated partial thromboplastin time (aPTT) in human plasma
factor XIIa = target: T1, factor XIIa (Homo sapiens, UniProt P00748); test: inhibition of factor XIIa, dissociation constant Ki
T1 sequence (P00748 373-615 limits assumed): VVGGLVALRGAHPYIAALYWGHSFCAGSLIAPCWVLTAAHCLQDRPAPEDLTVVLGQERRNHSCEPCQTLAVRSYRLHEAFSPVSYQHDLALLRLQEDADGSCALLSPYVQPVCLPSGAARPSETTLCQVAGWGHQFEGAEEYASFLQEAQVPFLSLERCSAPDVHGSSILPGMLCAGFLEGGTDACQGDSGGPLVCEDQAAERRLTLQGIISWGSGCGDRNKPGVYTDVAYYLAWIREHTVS

Sequences of proteins named here, by UniProt entry; tags and fusion partners are left off. Residues count along the entry.
UniProt P00747, 97-580 partner limits assumed: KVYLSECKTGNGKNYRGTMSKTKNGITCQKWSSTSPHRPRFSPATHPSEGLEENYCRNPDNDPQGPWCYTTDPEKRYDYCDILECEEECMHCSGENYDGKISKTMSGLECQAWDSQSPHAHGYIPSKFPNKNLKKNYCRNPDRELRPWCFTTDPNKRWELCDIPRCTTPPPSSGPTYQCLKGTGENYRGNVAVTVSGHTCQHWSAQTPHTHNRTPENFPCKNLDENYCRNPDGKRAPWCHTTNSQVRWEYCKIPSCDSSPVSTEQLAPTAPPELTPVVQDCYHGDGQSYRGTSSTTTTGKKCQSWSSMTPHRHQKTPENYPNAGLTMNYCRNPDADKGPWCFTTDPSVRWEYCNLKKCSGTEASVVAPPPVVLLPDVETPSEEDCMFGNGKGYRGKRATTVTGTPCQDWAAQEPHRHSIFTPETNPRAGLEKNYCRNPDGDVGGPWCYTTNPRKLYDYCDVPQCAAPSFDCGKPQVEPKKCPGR
UniProt P00747, 581-810 limits assumed: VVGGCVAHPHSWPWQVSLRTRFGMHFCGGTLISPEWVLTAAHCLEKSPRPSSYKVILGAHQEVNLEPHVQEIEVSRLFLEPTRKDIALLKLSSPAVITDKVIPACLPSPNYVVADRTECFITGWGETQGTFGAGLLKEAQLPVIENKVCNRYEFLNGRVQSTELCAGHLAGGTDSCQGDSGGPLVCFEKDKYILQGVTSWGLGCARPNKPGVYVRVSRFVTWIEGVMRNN

Row | SMILES | Ki (thrombin) | Concentr. to double the Thrombin time [1] | Concentr. to double the Prothrombin time [2] | Concentr. to double the aPTT [3] | further results
1 | CS(=O)(=O)N1CCN(C(=O)C(Cc2cccc(C(=N)N)c2)NS(=O)(=O)c2ccc3ccccc3c2)CC1 (centres unmarked) [AMD 2-Naph SO2 Me] | 0.0028 µM | – | – | – | –
2 | Cc1c(C)c(S(=O)(=O)NC(Cc2cccc(C(=N)N)c2)C(=O)N2CCN(S(C)(=O)=O)CC2)c(C)c2c1OC(C)(C)CC2 (centres unmarked) [AMD Pmc SO2 Me] | – | – | – | – | Ki (plasmin): 30 µM
3 | CC(=O)N1CCN(C(=O)[C@H](Cc2cccc(C(=N)N)c2)NS(=O)(=O)c2ccc3ccccc3c2)CC1.Cl [Compound 2, Nα-(2-naphthylsulfonyl)-(L)-3-amidinophenylalanine-4-acetylpiperazide hydrochloride] | 0.012 µM | – | – | – | –
4 | CS(=O)(=O)N1CCN(C(=O)[C@H](Cc2cccc(C(=N)N)c2)NS(=O)(=O)c2ccc3ccccc3c2)CC1.Cl [Compound 5, Nα-(2-naphthylsulfonyl)-3-amidino-(L)-phenylalanine-4methylsulfonylpiperazide hydrochloride] | 0.0021 µM | – | – | – | –
5 | CS(=O)(=O)N1CCN(C(=O)C(Cc2cccc(C(=N)N)c2)NS(=O)(=O)c2cccc3ccccc23)CC1 (centres unmarked) [Compound 11] | – | 0.22 µmol/L | 3.1 µmol/L | 1.8 µmol/L | –
6 | N=C(N)c1ccc(C[C@H](NC(=O)CNS(=O)(=O)c2ccc3ccccc3c2)C(=O)N2CCCCC2)cc1 [NAPAP, Nα-(2-naphthylsulfonyl)-glycyl-4-amidinophenylalanine piperidide, reference compound] | – | 0.048 µmol/L | 1.0 µmol/L | 0.50 µmol/L | Ki (factor XIIa): 450 µM

Source: US5607937A, “Piperazides of substituted phenylalanine derivatives as thrombin inhibitors” (priority 1993, dated 1997)
